Experimental data reported in patent US20240366783A1.

Target: antigen HER2 (UniProt P04626)
Experiment: ELISA (heading of Example 10 says Biacore)

Kd: 6.37 pM
Substance: Kadcyla (T-DM1) (antibody)
